Protein sequences, listed by entry. Tags and fused reporters are not part of them. Residues count along the entry.
UniProt Q15116, 25-288 limits assumed: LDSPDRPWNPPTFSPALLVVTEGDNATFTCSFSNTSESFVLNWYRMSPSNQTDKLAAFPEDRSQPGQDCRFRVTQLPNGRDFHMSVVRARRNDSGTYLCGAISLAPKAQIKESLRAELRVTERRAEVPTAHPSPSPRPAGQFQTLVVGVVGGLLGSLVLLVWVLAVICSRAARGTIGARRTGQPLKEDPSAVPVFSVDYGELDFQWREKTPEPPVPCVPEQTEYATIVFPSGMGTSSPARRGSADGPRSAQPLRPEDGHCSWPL

In patent US20200095644A1:

Target: Human PD-1 on T cells from healthy blood donors (human) (UniProt Q15116)
Assay: cell-based or functional assay

Row | Substance | reduction in T cell viability (propidium iodide exclusion, flow cytometry)
1 | Human PD-L1 Isoform 5 (Soluble 1), recombinant, C-terminal HA tag (from UniProt Q9NZQ7 19-227) (ligand) | 10 to 20%
2 | Human PD-L1 Isoform 6 (Soluble 2), recombinant, C-terminal HA tag (from UniProt Q9NZQ7 19-227) (ligand) | 10 to 20%
